These results are taken from ChEMBL document CHEMBL1759916, “Bicyclo[2.2.2]octyltriazole inhibitors of 11β-hydoxysteroid dehydrogenase type 1. Pharmacological agents for the treatment of metabolic syndrome” (Bioorg Med Chem Lett, 2011).

Protein sequences, listed by entry. Tags and fused reporters are not part of them. Lines headed by an entry give the natural chain unless they say otherwise; changes in a name come on top.
UniProt P28845: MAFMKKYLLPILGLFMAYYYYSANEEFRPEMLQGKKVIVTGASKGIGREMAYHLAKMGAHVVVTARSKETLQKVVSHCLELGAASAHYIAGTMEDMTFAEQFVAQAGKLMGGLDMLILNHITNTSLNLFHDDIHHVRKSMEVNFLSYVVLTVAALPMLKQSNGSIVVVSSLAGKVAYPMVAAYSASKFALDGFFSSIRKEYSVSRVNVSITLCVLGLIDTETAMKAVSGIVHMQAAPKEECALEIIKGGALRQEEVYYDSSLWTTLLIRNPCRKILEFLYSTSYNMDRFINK

As usually defined, the IC50 is the concentration that inhibits the measured activity by half.

In test [1] the target is T1, 11-beta-hydroxysteroid dehydrogenase type 2 (Mus musculus, UniProt P51661).
T1 sequence (P51661 whole entry): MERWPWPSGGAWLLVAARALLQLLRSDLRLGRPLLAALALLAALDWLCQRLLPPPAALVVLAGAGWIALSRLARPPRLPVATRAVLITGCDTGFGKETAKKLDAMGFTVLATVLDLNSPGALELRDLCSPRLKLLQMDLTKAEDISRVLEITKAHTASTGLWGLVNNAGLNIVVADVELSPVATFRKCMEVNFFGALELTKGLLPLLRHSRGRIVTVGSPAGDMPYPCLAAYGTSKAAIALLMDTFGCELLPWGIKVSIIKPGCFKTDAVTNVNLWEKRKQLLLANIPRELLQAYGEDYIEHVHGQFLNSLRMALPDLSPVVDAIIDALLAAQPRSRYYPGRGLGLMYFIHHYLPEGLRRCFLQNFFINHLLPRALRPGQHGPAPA
Put plainly: Inhibition of mouse 11beta-HSD2 expressed in CHO-K1 cells assessed as conversion of [3H]-cortisol to [3H]-cortisone by scintillation proximity assay. It counts as cell-based. In short, it runs like this: (§1)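 Scintillation proximity assay (SPA). IC50 values are the average of two determinations.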

In test [2] the target is 11-beta-hydroxysteroid dehydrogenase 1 (Homo sapiens, UniProt P28845). As to the kind of experiment: Inhibition of human 11beta-HSD1 expressed in CHO-K1 cells assessed as conversion of [3H]-cortisone to [3H]-cortisol by scintillation proximity assay. It counts as cell-based. In short, it runs like this:
as §1
(In general: Scintillation proximity formats need no separation of bound from free tracer.)

As for `CC(O)CCCC12CCC(c3nnc4n3CCCCCC4)(CC1)CC2` (stereo not drawn), the half-inhibitory concentration (IC50) in test [1] amounted to 190 nM. Still for that read-out and setting: the figure for `Cn1c(-c2ccccc2C(F)(F)F)nnc1C12CCC(COc3ccc(Cl)cc3)(CC1)CC2` is above 4000 nM. In the case of `CCS(=O)(=O)CCC12CCC(c3nnc(-c4ccccc4F)n3C)(CC1)CC2`, the half-maximal inhibitory concentration (IC50) in test [2] came to 140 nM.
